How the values were obtained:
[1] = Particle size by light scattering (volume-weighted Gaussian analysis); type: physicochemical
Description: The nature of the polymeric aggregates may be attributed to the formation of nanoparticles with a hydrophobic core stabilized by outer hydrophilic PEG chains. Several lines of evidence support this conclusion. 1). […] Yokoyama, et al, Preparation of micelle-forming polymer-drug conjugates. Bioconjugate Chem. 3:295-101, 1992). 2). The formation of particles with volume-average diameter of 207 nm was detected by light scattering. […] 3).

[2] = tested on: A431 cells; assay: Confocal fluorescent microscopy binding and internalization in A431 cells; type: cell-based, human
Description: BODIPY (excitation/emission: 503/511 nm) and Adr (excitation/emission: 480/540-nm) were used to facilitate confocal fluorescent microscopic studies. Cells were grown on Lab-Tek II Chamber Slide (Nalge Nunc International, Naperville, Ill.) to 50% of confluence and incubated with immunoconjugates at 37° C. for various times. PEG-PG-Adr and PEG-PG-BODIPY were used as no-antibody polymer controls. […] Cells were washed three times with PBS, fixed in 95% ethanol, and then treated with 1 μM TO-[…] Iodide (Molecular Probes, Eugene, Oreg.) for 15 minutes for nuclei staining. Fluorescent images of cells were analyzed using LMS-510 confocal microscopy (Zeiss, Thornwood, N.Y.). […] The process was very rapid, internalization was observed as early as 5 minutes after drug exposure.

[3] = tested on: A431 cells; assay: MTT cytotoxicity, 6-hour pretreatment system; type: cell-based, human; conditions: read-out: IC50 (50% growth inhibition), 6 hours exposure, washing, additional 72 hours incubation
[4] = tested on: MDA-MB-468 cells that do not express Her2/neu receptors; assay: Confocal fluorescent microscopy binding to MDA-MB-468 cells (negative control cells); type: cell-based, human
Description: BODIPY (excitation/emission: 503/511 nm) and Adr (excitation/emission: 480/540-nm) were used to facilitate confocal fluorescent microscopic studies. Cells were grown on Lab-Tek II Chamber Slide (Nalge Nunc International, Naperville, Ill.) to 50% of confluence and incubated with immunoconjugates at 37° C. for various times. PEG-PG-Adr and PEG-PG-BODIPY were used as no-antibody polymer controls. […] Cells were washed three times with PBS, fixed in 95% ethanol, and then treated with 1 μM TO-PRO-3 Iodide (Molecular Probes, Eugene, Oreg.) for 15 minutes for nuclei staining. Fluorescent images of cells were analyzed using LMS-510 confocal microscopy (Zeiss, Thornwood, N.Y.).
It was not clear, however, whether the conjugates were internalized.

Row | Substance | dvolume (volume-average particle diameter) [1] | time at which binding of conjugate to cells reached maximum ([2]; 37° C., confocal microscopic studies) | earliest time at which internalization was observed after drug exposure ([2]; A431 cells) | localization to nuclei ([2]; A431 cells, confocal microscopy) | binding to A431 cells ([2]; at 15 minutes, confocal microscopy) | internalization into A431 cells ([2]; confocal microscopy) | IC50 [3] | binding to MDA-MB-468 cells [4]
1 | C225-PEG-PG-Adr | 16 nm | ≤ 6 h | 5 min | co-localized with nuclei | selectively bound to A431 cells | clearly visualized | 1690 nM | 
2 | Her-PEG-PG-BODIPY |  |  |  |  |  |  |  | did not bind to MDA-MB-468 cells

Reference: patent US20020197261A1, “Therapeutic agent/ligand conjugate compositions, their methods of synthesis and use” (priority 2001, published 2002)
